Results published in PubChem BioAssay (NCI).
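96-well plates; 48 h exposure; 5 concentrations. Endpoints by linear interpolation between flanking doses. Not reached: highest tested concentration assigned. GI50 marks 50% less growth. TGI: total growth inhibition.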

Experiments:
Assay in all cases: DTP human tumour cell line panel, 48 h
786-0 renal = test system: 786-0 renal
A498 renal = test system: A498 renal
A549 NSCLC = test system: A549 NSCLC
ACHN renal = test system: ACHN renal
CAKI-1 renal = test system: CAKI-1 renal
CCRF-CEM leukemia = test system: CCRF-CEM leukemia
COLO 205 colon = test system: COLO 205 colon
DU-145 prostate = test system: DU-145 prostate
EKVX NSCLC = test system: EKVX NSCLC
HCT-116 colon = test system: HCT-116 colon
HCT-15 colon = test system: HCT-15 colon
HL-60(TB) leukemia = test system: HL-60(TB) leukemia
HOP-92 NSCLC = test system: HOP-92 NSCLC
HT29 colon = test system: HT29 colon
IGROV1 ovarian = test system: IGROV1 ovarian
K-562 leukemia = test system: K-562 leukemia
KM12 colon = test system: KM12 colon
LOX IMVI melanoma = test system: LOX IMVI melanoma
M14 melanoma = test system: M14 melanoma
MCF7 breast = test system: MCF7 breast
MDA-MB-231 breast = test system: MDA-MB-231 breast
MDA-MB-435 = test system: MDA-MB-435
MOLT-4 leukemia = test system: MOLT-4 leukemia
NCI-H226 lung = test system: NCI-H226 lung
NCI-H322M lung = test system: NCI-H322M lung
NCI-H460 lung = test system: NCI-H460 lung
NCI/ADR-RES ovarian = test system: NCI/ADR-RES ovarian
OVCAR-3 ovarian = test system: OVCAR-3 ovarian
OVCAR-4 ovarian = test system: OVCAR-4 ovarian
OVCAR-5 ovarian = test system: OVCAR-5 ovarian
OVCAR-8 ovarian = test system: OVCAR-8 ovarian
PC-3 prostate = test system: PC-3 prostate
RXF 393 renal = test system: RXF 393 renal
SF-295 CNS = test system: SF-295 CNS
SF-539 CNS = test system: SF-539 CNS
SK-MEL-2 melanoma = test system: SK-MEL-2 melanoma
SK-MEL-28 melanoma = test system: SK-MEL-28 melanoma
SK-MEL-5 melanoma = test system: SK-MEL-5 melanoma
SK-OV-3 ovarian = test system: SK-OV-3 ovarian
SN12C renal = test system: SN12C renal
SNB-19 CNS = test system: SNB-19 CNS
SNB-75 CNS = test system: SNB-75 CNS
SR leukemia = test system: SR leukemia
SW-620 colon = test system: SW-620 colon
TK-10 renal = test system: TK-10 renal
U251 CNS = test system: U251 CNS
UACC-257 melanoma = test system: UACC-257 melanoma
UACC-62 melanoma = test system: UACC-62 melanoma
UO-31 renal = test system: UO-31 renal

O=[N+]([O-])c1ncn(F)c1[N+](=O)[O-]
GI50 (786-0 renal): > 100 µM
TGI (786-0 renal): > 100 µM
GI50 (A498 renal): > 100 µM
TGI (A498 renal): > 100 µM
GI50 (A549 NSCLC): > 100 µM
TGI (A549 NSCLC): > 100 µM
GI50 (ACHN renal): 94.6 µM
TGI (ACHN renal): > 100 µM
GI50 (CAKI-1 renal): 41.2 µM
TGI (CAKI-1 renal): > 100 µM
GI50 (CCRF-CEM leukemia): 60.9 µM
TGI (CCRF-CEM leukemia): > 100 µM
GI50 (COLO 205 colon): > 100 µM
TGI (COLO 205 colon): > 100 µM
GI50 (DU-145 prostate): > 100 µM
TGI (DU-145 prostate): > 100 µM
GI50 (EKVX NSCLC): > 100 µM
TGI (EKVX NSCLC): > 100 µM
GI50 (HCT-116 colon): > 100 µM
TGI (HCT-116 colon): > 100 µM
GI50 (HCT-15 colon): 41.7 µM
TGI (HCT-15 colon): > 100 µM
TGI (HL-60(TB) leukemia): > 100 µM
GI50 (HOP-92 NSCLC): > 100 µM
TGI (HOP-92 NSCLC): > 100 µM
GI50 (HT29 colon): > 100 µM
TGI (HT29 colon): > 100 µM
GI50 (IGROV1 ovarian): > 100 µM
TGI (IGROV1 ovarian): > 100 µM
GI50 (K-562 leukemia): > 100 µM
TGI (K-562 leukemia): > 100 µM
GI50 (KM12 colon): > 100 µM
TGI (KM12 colon): > 100 µM
GI50 (LOX IMVI melanoma): 79.8 µM
TGI (LOX IMVI melanoma): > 100 µM
GI50 (M14 melanoma): > 100 µM
TGI (M14 melanoma): > 100 µM
GI50 (MCF7 breast): > 100 µM
TGI (MCF7 breast): > 100 µM
GI50 (MDA-MB-231 breast): > 100 µM
TGI (MDA-MB-231 breast): > 100 µM
GI50 (MDA-MB-435): > 100 µM
TGI (MDA-MB-435): > 100 µM
GI50 (MOLT-4 leukemia): > 100 µM
TGI (MOLT-4 leukemia): > 100 µM
GI50 (NCI-H226 lung): 93.4 µM
TGI (NCI-H226 lung): > 100 µM
GI50 (NCI-H322M lung): > 100 µM
TGI (NCI-H322M lung): > 100 µM
GI50 (NCI-H460 lung): > 100 µM
TGI (NCI-H460 lung): > 100 µM
GI50 (NCI/ADR-RES ovarian): > 100 µM
TGI (NCI/ADR-RES ovarian): > 100 µM
GI50 (OVCAR-3 ovarian): > 100 µM
TGI (OVCAR-3 ovarian): > 100 µM
GI50 (OVCAR-4 ovarian): 49.9 µM
TGI (OVCAR-4 ovarian): > 100 µM
GI50 (OVCAR-5 ovarian): > 100 µM
TGI (OVCAR-5 ovarian): > 100 µM
GI50 (OVCAR-8 ovarian): > 100 µM
TGI (OVCAR-8 ovarian): > 100 µM
GI50 (PC-3 prostate): > 100 µM
TGI (PC-3 prostate): > 100 µM
GI50 (RXF 393 renal): > 100 µM
TGI (RXF 393 renal): > 100 µM
GI50 (SF-295 CNS): > 100 µM
TGI (SF-295 CNS): > 100 µM
GI50 (SF-539 CNS): > 100 µM
TGI (SF-539 CNS): > 100 µM
GI50 (SK-MEL-2 melanoma): > 100 µM
TGI (SK-MEL-2 melanoma): > 100 µM
GI50 (SK-MEL-28 melanoma): > 100 µM
TGI (SK-MEL-28 melanoma): > 100 µM
GI50 (SK-MEL-5 melanoma): > 100 µM
TGI (SK-MEL-5 melanoma): > 100 µM
GI50 (SK-OV-3 ovarian): > 100 µM
TGI (SK-OV-3 ovarian): > 100 µM
GI50 (SN12C renal): > 100 µM
TGI (SN12C renal): > 100 µM
GI50 (SNB-19 CNS): > 100 µM
TGI (SNB-19 CNS): > 100 µM
GI50 (SNB-75 CNS): > 100 µM
TGI (SNB-75 CNS): > 100 µM
GI50 (SR leukemia): 59.6 µM
TGI (SR leukemia): > 100 µM
GI50 (SW-620 colon): > 100 µM
TGI (SW-620 colon): > 100 µM
GI50 (TK-10 renal): > 100 µM
TGI (TK-10 renal): > 100 µM
GI50 (U251 CNS): > 100 µM
TGI (U251 CNS): > 100 µM
GI50 (UACC-257 melanoma): > 100 µM
TGI (UACC-257 melanoma): > 100 µM
GI50 (UACC-62 melanoma): > 100 µM
TGI (UACC-62 melanoma): > 100 µM
GI50 (UO-31 renal): > 100 µM
TGI (UO-31 renal): > 100 µM
